The assay relates to Hepatitis C virus NS3 protease. The assay is described as follows: Inhibitory activity against Protease using replicon assay […] at 25 uM concentration. The note with it: Rattus norvegicus. In general terms: A replicon is a self-replicating genome or part of one, used to study replication in cells.

The values that follow come from ChEMBL document CHEMBL1146701, “Discovery of a novel bicycloproline P2 bearing peptidyl alpha-ketoamide LY514962 as HCV protease inhibitor” (Bioorg Med Chem Lett, 2004).

On to `CCCC(NC(=O)[C@@H]1[C@H]2CC[C@@H](OCOC)C2CN1C(=O)[C@@H](NC(=O)[C@@H](NC(=O)c1cnccn1)C(C)C)C(C)C)C(=O)C(=O)NC1CC1` (some centres not stated), for which the inhibition (in general, the relative decrease from the control value, in per cent) was found to be 80%.
For `CCCC(NC(=O)C1[C@H]2CCC(=O)[C@H]2CN1C(=O)[C@@H](NC(=O)[C@@H](NC(=O)c1cnccn1)C(C)C)C(C)C)C(=O)C(=O)NC1CC1` (some centres not stated) the value was -9%.
